# AlphaSeq binding of Ab-91 heavy chain variants to a spike HR2 peptide

Reference: Engelhart et al. 2022, doi:10.1038/s41597-022-01779-4. File: FLAb, binding data.

The target is the same throughout: PDVDLGDISGINAS, from the HR2 region of SARS-CoV-2 spike.

Ab-91 is the parent antibody, in scFv form: VL, then a (GGGGS)3 linker, then VH. The light chain is unchanged in all variants.
VL: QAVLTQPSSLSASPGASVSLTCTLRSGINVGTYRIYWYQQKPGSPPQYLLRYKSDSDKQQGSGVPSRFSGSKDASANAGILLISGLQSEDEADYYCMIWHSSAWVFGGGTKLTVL
VH: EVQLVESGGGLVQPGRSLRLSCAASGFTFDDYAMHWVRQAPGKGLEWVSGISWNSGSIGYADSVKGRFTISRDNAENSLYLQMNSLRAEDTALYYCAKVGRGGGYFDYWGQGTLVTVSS

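The starting antibody came from a phage panning campaign against this peptide. In library AAYL51, one, two or three CDR residues were substituted; doubles and triples were drawn at random. The assay is AlphaSeq: two haploid yeast populations carry antibody and antigen on their surface. Pairs that bind mate more often; barcode pairs of the diploids are counted by sequencing. Scores were corrected for input abundance and mapped to Kd with protein pairs of known affinity run in the same pool. Each pool was mated in three replicate cultures.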

Substitutions are numbered in sequence along the VH above, starting at 1 (not Kabat). Values are log10 of the apparent Kd in nM; lower means stronger binding. "ND" marks a missing value. The strain was present, yet no cells mated with the target were sequenced in that replicate, which points to weak or no binding. Empty control strains, which show no peptide, gave a signal in 21% of pairings with library AAYL51; the median was 4.54 and 95% of these signals were weaker than 3.26. No background was subtracted. The control count says in how many pairings with the empty strains this scFv gave a signal, with their mean in brackets. Parent in this assay: reference entry 1.86, copy in this library 0.88.

{"changes": "G26D+I51P+Y105S", "replicates, log10 nM": "ND / 3.55 / ND", "control signals": "0/9"}
{"changes": "T28L+Y32I+V99A", "replicates, log10 nM": "5.09 / ND / ND", "control signals": "1/9 (4.96)"}
{"changes": "D62M+D107Q", "replicates, log10 nM": "4.21 / 4.91 / 4.76", "control signals": "8/9 (5.22)"}
{"changes": "G50K+N54R+S57T", "replicates, log10 nM": "4.35 / ND / 3.64", "control signals": "3/9 (4.55)"}
{"changes": "I51R+S57R+D62C", "replicates, log10 nM": "ND / ND / 3.95", "control signals": "2/9 (3.20)"}
{"changes": "I58R+G102V+Y108D", "replicates, log10 nM": "5.09 / 4.24 / ND", "control signals": "2/9 (3.24)"}
{"changes": "F29T+R101C+F106L", "replicates, log10 nM": "ND / ND / ND", "control signals": "0/9"}
{"changes": "I51Q+G59M+S63A", "replicates, log10 nM": "ND / ND / ND", "control signals": "2/9 (3.83)"}
{"changes": "G26C+Y32A+Y60M", "replicates, log10 nM": "3.89 / 5.43 / ND", "control signals": "6/9 (4.36)"}
{"changes": "Y32R+K65A+Y108G", "replicates, log10 nM": "ND / 4.74 / ND", "control signals": "2/9 (4.42)"}
{"changes": "H35Q+S57V+F106I", "replicates, log10 nM": "ND / ND / ND", "control signals": "1/9 (3.98)"}
{"changes": "H35W+I51F+R101G", "replicates, log10 nM": "3.23 / ND / ND", "control signals": "4/9 (4.71)"}
{"changes": "T28K+G59Y", "replicates, log10 nM": "6.54 / ND / 5.64", "control signals": "6/9 (5.21)"}
{"changes": "W53C+V64R+V99N", "replicates, log10 nM": "ND / ND / ND", "control signals": "0/9"}
{"changes": "A33W+G50D+Y108M", "replicates, log10 nM": "ND / ND / ND", "control signals": "1/9 (3.53)"}
{"changes": "T28K+S55C+S57G", "replicates, log10 nM": "ND / ND / ND", "control signals": "0/9"}
{"changes": "D31T+G102C", "replicates, log10 nM": "ND / ND / ND", "control signals": "1/9 (3.27)"}
{"changes": "I51W+N54A+V99S", "replicates, log10 nM": "ND / ND / ND", "control signals": "4/9 (4.12)"}

For reference, 3 entries of the list once more:

| changes | replicates, log10 nM | control signals |
|---|---|---|
| F29T+R101C+F106L | ND / ND / ND | 0/9 |
| I51W+N54A+V99S | ND / ND / ND | 4/9 (4.12) |
| G50K+N54R+S57T | 4.35 / ND / 3.64 | 3/9 (4.55) |